Experimental data taken from patent publication US8895544B2, “Indazoles” (Pfizer Limited, priority 2011, dated 2014).

Chains of the proteins cited; added tags and fusions are not shown. Lines headed by an entry give the natural chain unless they say otherwise; changes in a name come on top.
UniProt P52333: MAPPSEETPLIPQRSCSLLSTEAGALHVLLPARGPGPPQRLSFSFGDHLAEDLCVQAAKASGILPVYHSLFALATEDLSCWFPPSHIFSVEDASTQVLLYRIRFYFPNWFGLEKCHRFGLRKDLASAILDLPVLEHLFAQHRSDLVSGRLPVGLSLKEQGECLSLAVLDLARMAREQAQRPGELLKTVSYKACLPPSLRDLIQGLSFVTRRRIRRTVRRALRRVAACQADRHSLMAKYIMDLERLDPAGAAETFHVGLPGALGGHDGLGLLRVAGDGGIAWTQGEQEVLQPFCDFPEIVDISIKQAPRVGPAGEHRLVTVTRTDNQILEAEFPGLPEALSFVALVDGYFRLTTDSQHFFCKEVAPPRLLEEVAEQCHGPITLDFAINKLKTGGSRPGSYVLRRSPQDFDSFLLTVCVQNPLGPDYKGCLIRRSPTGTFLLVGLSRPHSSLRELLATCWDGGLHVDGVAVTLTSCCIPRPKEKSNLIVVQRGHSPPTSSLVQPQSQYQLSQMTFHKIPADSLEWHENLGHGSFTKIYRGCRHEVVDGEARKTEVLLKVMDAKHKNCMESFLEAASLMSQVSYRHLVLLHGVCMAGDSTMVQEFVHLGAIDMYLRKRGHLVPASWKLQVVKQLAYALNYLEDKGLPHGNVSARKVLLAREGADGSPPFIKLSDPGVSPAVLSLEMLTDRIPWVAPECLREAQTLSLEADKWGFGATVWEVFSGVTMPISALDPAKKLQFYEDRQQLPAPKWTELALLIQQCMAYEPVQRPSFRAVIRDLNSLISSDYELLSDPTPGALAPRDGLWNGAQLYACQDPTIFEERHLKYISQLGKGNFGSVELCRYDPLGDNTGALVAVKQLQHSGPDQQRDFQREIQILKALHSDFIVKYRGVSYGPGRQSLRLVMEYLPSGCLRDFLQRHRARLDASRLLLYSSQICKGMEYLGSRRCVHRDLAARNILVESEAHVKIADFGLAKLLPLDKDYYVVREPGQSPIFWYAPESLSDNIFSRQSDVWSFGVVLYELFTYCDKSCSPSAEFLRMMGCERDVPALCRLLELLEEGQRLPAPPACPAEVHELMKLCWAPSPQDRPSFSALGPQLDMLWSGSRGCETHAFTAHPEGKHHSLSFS

Biological target: JAK3 enzyme (Homo sapiens (Human), UniProt P52333)
Test: JAK3 isolated enzyme high ATP Caliper endpoint assay
Format: biochemical
Conditions: 400 μM ATP, read-out: JAK-3 IC50

IC50: 1 nM
Substance: {2-[6-(2-Ethyl-5-fluoro-4-hydroxy-phenyl)-1H-indazol-3-yl]-1,4,6,7-tetrahydro-imidazo[4,5-c]pyridin-5-yl}-isothiazol-3-yl-methanone [Example 3]
